# Test results as given in patent US20110263539A1, “SHIP 1 MODULATOR COMPOUNDS” (THE UNIVERSITY OF BRITISH COLUMBIA, priority 2006, published 2011).
# Tested on: J774.1a macrophage cells
# Assay: Macrophage TNF-α NO assay (Assay 3); note: key: a ‘+’ indicates a positive result for desired activity; a ‘−’ indicates a negative result for desired activity
# Format: cell-based
# Settings: 10 μg/ml test compound, LPS, 24 hr, Griess reagent
# Description: Assay 3) Macrophage TNF-α NO assay. J774.1a macrophage cells were treated with 10 μg/ml of test compound dissolved in solvent for 40 minutes prior to the addition of LPS. Culture supernatants were collected after 24 hr. for determination of NO concentration using the Griess reagent.
row,Structure (SMILES),Assay Number 3: Macrophage NO
1,"COC(=O)c1cc(O)c(O)c2c1[C@@]1(C)CCC3C(C)(C)CCC[C@]3(C)[C@H]1C2 (stereo partly drawn) [Compound 8-Epipelorol, 8-Epipelorol, reference compound]",+
2,"COC(=O)c1cc(O)c(O)c2c1[C@]1(C)CCC3C(C)(C)CCC[C@]3(C)[C@@H]1C2 (stereo partly drawn) [Compound 9-Epipelorol, 9-Epipelorol, reference compound]",+
3,"COC(=O)c1cc(O)c(O)c2c1[C@]1(C)CCC3C(C)(C)CCC[C@]3(C)[C@H]1C2 (stereo partly drawn) [Pelorol, pelorol, reference compound]",+
